Patent publication US6890516

Molecular target: dCREB2-a protein (Drosophila)
Assay: cell-based or functional assay

- activation of the D(-71) CAT reporter (CAT/βgal ratio, F9 cells): 5.4 fold
Substance: mouse PKA catalytic subunit (from UniProt P05132 2-351) (enzyme)
